Legend:
[1] = target: T1, PCSK9/LDLR (Homo sapiens) (UniProt Q8NBP7+P01130); assay: Inhibition of PCSK9-LDLR protein-protein interaction in human HepG2 cells assessed as restoration of LDLR at 50 uM; format: cell-based
[2] = target: T1, PCSK9/LDLR (Homo sapiens); assay: Inhibition of PCSK9-LDLR protein-protein interaction in human HepG2 cells assessed as increase in LDL uptake at 50 uM; format: cell-based
[3] = target: T1, PCSK9/LDLR (Homo sapiens); assay: Inhibition of PCSK9-LDLR protein-protein interaction in human HepG2 cells assessed as increase in LDL uptake relative to control; format: cell-based
[4] = target: T1, PCSK9/LDLR (Homo sapiens); assay: Inhibition of PCSK9-LDLR (unknown origin) protein-protein interaction relative to control; format: protein assay

Amino acid sequences for entries named in this document (tags omitted). A change or cut given only in a name is not applied to a line headed by its entry.
UniProt Q8NBP7, whole entry, looked up: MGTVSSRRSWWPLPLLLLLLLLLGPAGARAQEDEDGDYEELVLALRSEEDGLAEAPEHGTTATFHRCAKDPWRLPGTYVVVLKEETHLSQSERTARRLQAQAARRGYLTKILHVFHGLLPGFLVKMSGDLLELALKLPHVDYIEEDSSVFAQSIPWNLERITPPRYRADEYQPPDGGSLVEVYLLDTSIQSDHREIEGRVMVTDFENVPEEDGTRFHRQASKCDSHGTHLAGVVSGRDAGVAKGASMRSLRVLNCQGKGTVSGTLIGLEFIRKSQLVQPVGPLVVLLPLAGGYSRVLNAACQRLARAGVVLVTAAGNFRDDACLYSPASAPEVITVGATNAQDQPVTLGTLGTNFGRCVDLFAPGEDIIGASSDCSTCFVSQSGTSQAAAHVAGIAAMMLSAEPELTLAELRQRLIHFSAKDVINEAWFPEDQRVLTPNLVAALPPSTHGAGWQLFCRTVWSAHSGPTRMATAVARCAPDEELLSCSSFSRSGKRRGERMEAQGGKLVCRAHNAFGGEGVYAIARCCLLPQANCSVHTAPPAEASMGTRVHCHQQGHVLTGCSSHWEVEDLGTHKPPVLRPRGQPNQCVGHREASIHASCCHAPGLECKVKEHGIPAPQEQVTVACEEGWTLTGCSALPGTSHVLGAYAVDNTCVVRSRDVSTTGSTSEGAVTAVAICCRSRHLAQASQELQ
UniProt P01130: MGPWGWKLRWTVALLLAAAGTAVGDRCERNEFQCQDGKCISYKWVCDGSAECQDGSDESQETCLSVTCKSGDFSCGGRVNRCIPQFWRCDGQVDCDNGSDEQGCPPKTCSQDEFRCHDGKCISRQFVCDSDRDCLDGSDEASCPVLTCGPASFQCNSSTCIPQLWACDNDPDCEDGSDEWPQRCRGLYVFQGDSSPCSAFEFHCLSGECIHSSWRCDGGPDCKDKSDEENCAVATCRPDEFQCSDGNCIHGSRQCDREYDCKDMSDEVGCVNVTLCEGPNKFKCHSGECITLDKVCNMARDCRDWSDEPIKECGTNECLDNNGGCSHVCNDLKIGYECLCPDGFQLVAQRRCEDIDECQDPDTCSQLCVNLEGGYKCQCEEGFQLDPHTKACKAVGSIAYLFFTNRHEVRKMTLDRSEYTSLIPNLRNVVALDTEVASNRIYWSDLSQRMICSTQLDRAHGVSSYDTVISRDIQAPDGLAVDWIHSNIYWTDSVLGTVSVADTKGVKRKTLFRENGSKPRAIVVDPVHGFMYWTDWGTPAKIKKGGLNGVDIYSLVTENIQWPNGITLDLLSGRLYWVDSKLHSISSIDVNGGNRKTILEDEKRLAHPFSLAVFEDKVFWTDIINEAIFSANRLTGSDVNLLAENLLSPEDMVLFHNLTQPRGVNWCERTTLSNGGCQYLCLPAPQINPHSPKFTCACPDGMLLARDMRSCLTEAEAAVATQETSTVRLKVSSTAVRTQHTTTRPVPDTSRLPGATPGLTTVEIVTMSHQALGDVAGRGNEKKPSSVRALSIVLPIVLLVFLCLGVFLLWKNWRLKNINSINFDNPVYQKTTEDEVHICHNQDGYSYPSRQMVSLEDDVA

| Compound | inhibition [1] | inhibition [2] | Emax [3] | Emax [4] |
| --- | --- | --- | --- | --- |
| CC[C@H](C)[C@H](NC(=O)[C@@H](N)CC(C)C)C(=O)N[C@@H](CC(C)C)C(=O)N1CCC[C@H]1C(=O)N[C@@H](CCCCN)C(=O)N[C@@H](Cc1c[nH]cn1)C(=O)N[C@@H](CO)C(=O)N[C@@H](C)C(=O)N[C@@H](CC(=O)O)C(=O)O | 99% | 100% | – | – |
| CC(C)[C@@H]1NC(=O)[C@H](Cc2ccccc2)NC(=O)CSC[C@@H](C(=O)NCC(N)=O)NC(=O)[C@@H]2CCCN2C(=O)[C@H](CCCNC(=N)N)NC(=O)[C@H](CC(=O)O)NC(=O)[C@H](C)N(C)C(=O)[C@H](Cc2ccc(-c3ccccc3)cc2)NC(=O)[C@H](C)N(C)C(=O)[C@H](Cc2ccc(-c3ccccc3)cc2)NC(=O)[C@H]([C@@H](C)O)NC(=O)[C@H]([C@@H](C)O)NC(=O)[C@H](CO)NC1=O | – | – | 38% | – |
| CCNC(=O)[C@@H]1CSCC(=O)N[C@@H](Cc2ccccc2)C(=O)N[C@@H](C(C)C)C(=O)N2CCC[C@H]2C(=O)N[C@@H]([C@@H](C)O)C(=O)N[C@@H]([C@@H](C)O)C(=O)N[C@@H](Cc2ccc(-c3ccccc3)cc2)C(=O)N(C)[C@@H](C)C(=O)N[C@@H](Cc2ccc(-c3ccccc3)cc2)C(=O)N(C)[C@@H](C)C(=O)N[C@@H](CCC(=O)O)C(=O)N[C@@H](C)C(=O)N2CCC[C@H]2C(=O)N1 | – | – | 77% | 90% |
| CC(C)C[C@H](N)C(=O)N1CCC[C@H]1C(=O)N[C@@H](CCCCN)C(=O)N[C@@H](Cc1c[nH]cn1)C(=O)N[C@@H](CO)C(=O)N[C@@H](C)C(=O)N[C@@H](CC(=O)O)C(=O)O | 90% | 104% | – | – |

Source: ChEMBL document CHEMBL5233285, “Recent Update on the Development of PCSK9 Inhibitors for Hypercholesterolemia Treatment” (J Med Chem, 2022)
